# An excerpt weighted towards active compounds, which were near 16% of everything screened.
# DT40 TDP1 CPT: growth inhibition of DT40 Tdp1-/-;hTDP1 cells with camptothecin (screen for TDP1 inhibitors) | chicken DT40 Tdp1-/-;hTDP1 cells + 20 nM CPT, ATP luminescence, 48 h | Potency, µM (titrated, usually from 46.2 µM), without a hit: top-dose activity change, negative = growth inhibition, most hits filed as inhibitors | 12% of 420,000 active; further: potency means the concentration at half of the fitted maximal effect; on the % scale 0 is the no-effect control and ±100 the full control effect; nearly all actives have a fitted effect of over 55% in size
#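 Chicken DT40 Tdp1-/- cells stably complemented with human TDP1 were seeded at 400 cells/well in medium containing 20 nM camptothecin, exposed to pin-transferred compounds, and grown at 37 °C for at least 48 hr. Viability was read as ATP luminescence.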
# uPA surface inh: blocks generation of uPA at the cell surface | 0.31% of 330,000 active | cell surface uPA generation assay, qHTS | Potency, µM (highest dose often 38.3 µM), inactives show at the top dose activity change, negative = inhibition, usual class: inhibitors; active means well fitted inhibition curve with a large enough effect; inconclusive means small, poorly fitted or top-dose-only effect; inactive means no such curve, though single readings can be large or run the other way; tested in mouse RAW 264.7 cells; further: potency means the concentration at half of the fitted maximal effect; on the % scale 0 is the no-effect control and ±100 the full control effect; nearly all actives have a fitted effect of over 55% in size
# TDP1 block: blocks human tyrosyl-DNA phosphodiesterase 1; Q9NUW8; recombinant TDP1, AlphaScreen DNA substrate cleavage; Potency, µM (highest dose often 130 µM), without a hit: top-dose activity change, negative = inhibition, hits mostly inhibitors; 0.28% of 350,000 active; further: potency means the concentration at half of the fitted maximal effect; on the % scale 0 is the no-effect control and ±100 the full control effect; nearly all actives have a fitted effect of over 40% in size
#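 Enzyme-compound mixtures sat 15 min at room temperature, followed by a 5 min reaction with 15 nM final substrate and 10 min with AlphaScreen beads. Recombinant human Tdp1 was used at 1 nM final.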
# miR-21 reporter: miR-21 reporter, rising signal | AID 2288 | HeLa miR-21 FLuc reporter, luciferase, 48 h | 340,000 tested, under 10 active | Potency, µM (doses to about 38.3 µM), for inactives: at the top dose reporter change, positive = more light; active = well fitted rising curve with a large enough effect; inconclusive = small, poorly fitted or top-dose-only effect; inactive = no such curve, though single readings can be large or run the other way;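 note: % of control where 0% means no effect; miR-21 action dims this reporter so a rising signal means less miR-21 action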
#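 Luminescence from a firefly luciferase reporter carrying a miR-21 binding site downstream, stably expressed under a CMV promoter in HeLa cells that make miR-21 endogenously, reports miRNA modulation after 48 h compound exposure up to approximately 40uM final.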
# TDP1 cell noCPT: qHTS for Inhibitors of human tyrosyl-DNA phosphodiesterase 1 (TDP1): qHTS in cells in absence of CPT; AID 686978, 2013; DT40 Tdp1-/- hTDP1 cells, no CPT, ATP luminescence, 48 h; Potency, µM (series often up to 46.2 µM), without a hit: at the highest dose activity change, negative = growth inhibition, most hits filed as inhibitors; 15% of 420,000 active; further: potency means the concentration at half of the fitted maximal effect; on the % scale 0 is the no-effect control and ±100 the full control effect; nearly all actives have a fitted effect of over 55% in size
#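 Camptothecin absent (DMSO only). Human TDP1-complemented DT40 knockout cells, 400 cells/well, 37 °C for minimum 48 hr; ATP measured via CellTiter-Glo, 30 min dark incubation, luminescence.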
# Numbers without * were called inactive; ? = inconclusive; . = no result given. Unless noted, the call rests on the fitted dose curve; in most records, active means well fitted curve in the direction sought with a large enough effect; inconclusive means small, poorly fitted or top-dose-only effect, or another doubt; inactive means no such curve, though single readings can be large; an effect the other way counts as inactive or inconclusive.
no.	Compound	DT40 TDP1 CPT	uPA surface inh	TDP1 block
1	N#C/C(C(N)=O)=C1/SC=C(c2ccccc2)N1c1ccccc1	?	-3%	4%
2	Cc1cccc2nc3ccccc3nc12	24%	0%	6%
3	Cc1cccc(S(=O)(=O)Nc2ccc(-c3ccc4nncn4n3)cc2)c1	?	-4%	-14%
4	COc1ccc(S(=O)(=O)Nc2ccc(-c3ccc4nncn4n3)cc2)c(OC)c1	9.2µM*	-7%	-7%
5	COc1ccc(S(=O)(=O)Nc2cccc(-c3ccc4nncn4n3)c2)cc1	3.7µM*	-9%	.
6	CCc1ccc(S(=O)(=O)Nc2cccc(-c3ccc(N4CCC(C)CC4)nn3)c2)s1	?	.	5%
7	COc1cc(OC)cc(C(=O)Nc2cccc(-c3ccc4nncn4n3)c2)c1	.	.	2%
8	COc1ccc(C(=O)Nc2cccc(-c3ccc4nncn4n3)c2)cc1	15µM*	-2%	0%
9	O=S(=O)(Nc1ccc(-c2ccc3nncn3n2)cc1)c1ccccc1Cl	?	11%	.
10	CCc1ccc(S(=O)(=O)Nc2cccc(-c3ccc4nncn4n3)c2)s1	?	-13%	5%
11	CC1C(=O)N2CCCc3cc(NS(=O)(=O)c4ccc(F)cc4)cc1c32 (stereo not given)	9%	-1%	.
12	COc1ccc(C)cc1NC(=O)C1CCCN1C(=O)OCc1ccccc1 (stereo not given)	-27%	12%	3%
13	CCN(C(=O)COC(=O)/C(=C/c1ccccc1)NC(C)=O)c1c(N)n(Cc2ccccc2)c(=O)[nH]c1=O	-4%	1%	.
14	CC[C@@]1(C(=O)OC)N[C@H](CN(C)C(=O)Nc2ccc(F)cc2)[C@@H]2C(=O)N(C)C(=O)[C@@H]21	-1%	7%	3%
15	COc1ccc(C(=O)C2CCCN(C(=O)/C=C/c3cnc[nH]3)C2)c(C)c1 (stereo not given)	-23%	-3%	3%

no.	miR-21 reporter	TDP1 cell noCPT
1	1%	18µM*
2	2%	13%
3	.	?
4	.	10µM*
5	.	2.6µM*
6	-13%	?
7	-5%	.
8	-1%	15µM*
9	.	-10%
10	21%	15µM*
11	.	-27%
12	-7%	?
13	.	-15%
14	.	-3%
15	-24%	-24%

# Following part:
no.	Compound	DT40 TDP1 CPT	uPA surface inh	TDP1 block
16	O=C(COc1ccc(Cl)cc1)Nc1cccc(-c2ccc3nncn3n2)c1	-25%	-1%	0%
17	COCC(=O)Nc1cccc(-c2ccc3nncn3n2)c1	-14%	-1%	-3%
18	Cc1ccc2c(C)c(C(=O)N3CCN(c4cnccn4)CC3)oc2c1C	?	-8%	8%
19	Cc1c(C(=O)N2CCN(c3ccccn3)CC2)oc2ccccc12	?	.	-1%
20	O=C(NCC1CCCO1)c1ccc(CS(=O)(=O)Cc2ccc(F)cc2)o1 (stereo not given)	-7%	3%	0%
21	CC(C)CCNC(=O)COc1ccc(C(=O)c2ccccc2)cc1	18µM*	-1%	-5%
22	CC(=O)c1ccc(OCC(=O)NC(=O)NC2CCCCC2)cc1	23µM*	-3%	3%
23	O=C(COc1ccc(C(=O)c2ccccc2)cc1)NC1CCCCCC1	26µM*	-4%	0%
24	CCC(C)(C)NC(=O)COc1ccc(C(=O)c2ccccc2)cc1	-7%	16%	3%
25	O=C(COc1ccc(C(=O)c2ccccc2)cc1)NC1CCCCC1	-6%	8%	5%
26	COC(=O)c1ccc(OCC(=O)NC2CCCCCCC2)cc1	?	-1%	1%
27	CC(C)=N/N=C1/NC(=O)C(c2ccc(Cl)cc2)S1 (stereo not given)	?	0%	.
28	CC(C)(C)OC(=O)N1CCC[C@H]1C(=O)N1CCC[C@H]1C(=O)NCc1ccncc1	-17%	.	.
29	COc1ccc(C(=O)NNC(=O)C2CCN(S(=O)(=O)c3ccc(C)cc3)CC2)cc1	0%	-1%	-1%
30	COc1ccc(OCc2nnc(SCC(=O)NCC3CCCO3)n2N)cc1 (stereo not given)	-10%	1%	2%

no.	miR-21 reporter	TDP1 cell noCPT
16	4%	16µM*
17	-3%	17%
18	-22%	18µM*
19	2%	?
20	-2%	-12%
21	12%	?
22	-2%	16µM*
23	17%	16µM*
24	1%	0%
25	21%	-18%
26	.	16µM*
27	.	?
28	.	-11%
29	5%	-2%
30	.	-11%

# Compounds above with a thiophene ring, fused or not, in the order listed:
no.	Compound	DT40 TDP1 CPT	uPA surface inh	TDP1 block
6	CCc1ccc(S(=O)(=O)Nc2cccc(-c3ccc(N4CCC(C)CC4)nn3)c2)s1	?	.	5%
10	CCc1ccc(S(=O)(=O)Nc2cccc(-c3ccc4nncn4n3)c2)s1	?	-13%	5%

no.	miR-21 reporter	TDP1 cell noCPT
6	-13%	?
10	21%	15µM*

# Another view of two compounds above.
item	SMILES	DT40 TDP1 CPT	uPA surface inh	TDP1 block	miR-21 reporter	TDP1 cell noCPT
22	CC(=O)c1ccc(OCC(=O)NC(=O)NC2CCCCC2)cc1	23µM*	-3%	3%	-2%	16µM*
23	O=C(COc1ccc(C(=O)c2ccccc2)cc1)NC1CCCCCC1	26µM*	-4%	0%	17%	16µM*

# Screening data from PubChem BioAssay.
